Our source for the IC50 values is ChEMBL document CHEMBL3769321, “Design and evaluation of novel glutaminase inhibitors” (Bioorg Med Chem, 2016).

This experiment concerns MDA-MB-231. The experiment in a line: Cytotoxicity against human MDA-MB-231 cells measured on 6th day by hemocytometry. It counts as functional, cell-based.

In turn, `O=C(Cc1cccc(OC(F)(F)F)c1)Nc1ccc(CCCCc2nnc(NC(=O)Cc3ccccn3)s2)nn1` came in with an IC50 of 33 nM.

By IC50 is commonly meant the midpoint of a concentration-inhibition curve. Low values mean greater potency, high ones weaker potency.
